Our source for the IC50 values is paper PMC9897792, “Discovery of novel 2-(4-(benzyloxy)-5-(hydroxyl) phenyl) benzothiazole derivatives as multifunctional MAO-B inhibitors for the treatment of Parkinson’s disease” (Journal of Enzyme Inhibition and Medicinal Chemistry, 2023).

Sequences of proteins named here, by UniProt entry; tags and fusion partners are left off.
UniProt P21397, whole entry: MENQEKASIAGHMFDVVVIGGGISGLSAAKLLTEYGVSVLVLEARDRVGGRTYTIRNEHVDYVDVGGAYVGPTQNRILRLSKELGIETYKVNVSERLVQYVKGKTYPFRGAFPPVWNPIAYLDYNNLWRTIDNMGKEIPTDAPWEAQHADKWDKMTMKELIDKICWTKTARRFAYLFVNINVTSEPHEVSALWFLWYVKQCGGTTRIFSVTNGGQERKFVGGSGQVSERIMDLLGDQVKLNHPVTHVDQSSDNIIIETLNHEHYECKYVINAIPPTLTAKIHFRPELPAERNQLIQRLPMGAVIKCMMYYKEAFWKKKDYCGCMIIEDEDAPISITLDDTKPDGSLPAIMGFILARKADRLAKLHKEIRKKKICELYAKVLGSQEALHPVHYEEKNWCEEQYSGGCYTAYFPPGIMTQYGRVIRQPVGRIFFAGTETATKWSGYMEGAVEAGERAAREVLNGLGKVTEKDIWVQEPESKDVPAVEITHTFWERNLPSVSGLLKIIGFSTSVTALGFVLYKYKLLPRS

As a reminder, the IC50 is the midpoint of a concentration-inhibition curve. Higher therefore signals a need for much substance.

The target in the assay is MAO-A (Homo sapiens, UniProt P21397). The assay is described as follows: MAO-A inhibition, kynuramine method. It counts as biochemical.

The compound `CC(C)NNC(=O)c1ccncc1` [Iproniazid, reference compound] had an IC50 of 1870 ± 20 nM.
